Source: patent US11092610B2, “Biomarker SBP1 for early diagnosis of kidney diseases, and use thereof” (CELLGENTEK CO., LTD., priority 2016, dated 2021)

Test system: SD rats
[1] = very small dose (0.1 mg/kg) for a month

Q: Which “renal failure, pathological findings of kidney tissue (H&E staining)” value (chronic oral administration, low dose (0.1 mg/kg), one month) does the source give for HgCl2 [mercury] here?
A: renal failure was induced

Q: And the “SBP1 expression in renal tissue” value (low dose orally administered)?
A: increased

Q: And the BUN level [1]?
A: not increased

Q: What about the SBP1 in urine [1] of the same substance?
A: detected

Q: What about the creatinine level [1] of the same substance?
A: not increased

Q: And the histological damage [1]?
A: not increased
